Target: T1, Alpha-1A adrenergic receptor (Rattus norvegicus, UniProt P43140)
T1 sequence (P43140 whole entry): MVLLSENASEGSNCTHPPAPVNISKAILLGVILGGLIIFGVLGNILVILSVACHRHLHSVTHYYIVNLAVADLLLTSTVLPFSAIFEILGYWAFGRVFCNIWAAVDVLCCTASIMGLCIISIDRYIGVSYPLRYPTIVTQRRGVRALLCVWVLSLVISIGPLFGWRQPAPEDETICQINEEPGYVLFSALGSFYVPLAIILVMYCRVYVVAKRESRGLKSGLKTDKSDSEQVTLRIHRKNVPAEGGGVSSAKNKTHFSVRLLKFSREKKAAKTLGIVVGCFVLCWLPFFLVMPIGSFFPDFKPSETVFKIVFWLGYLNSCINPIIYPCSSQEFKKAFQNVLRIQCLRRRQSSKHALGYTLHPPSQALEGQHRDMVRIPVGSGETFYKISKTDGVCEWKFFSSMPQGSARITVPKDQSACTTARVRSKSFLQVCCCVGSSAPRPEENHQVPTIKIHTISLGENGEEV

Ki: 1100 nM
SMILES: COC(=O)[C@@H]1[C@H]2C[C@H]3c4[nH]c5ccccc5c4CCN3C[C@@H]2CC[C@@H]1O [yohimbic acid methyl ester]
